According to patent US20030036531A1, “Use of lysophospholipids to inhibit mammalian phospholipase D” (Wisconsin Alumni Research Foundation, priority 2001, published 2003):

Biological target: T1, partially purified PLD from rat brain membrane (Rattus norvegicus, UniProt P70496)
T1 construct: The activity of partially purified PLD from rat brain membrane was assayed; tissue Dr. Sue Goo Rhee (National Institutes of Health, Bethesda, Md.); host or cells: rat brain membranes
T1 sequence (P70496 1-1074): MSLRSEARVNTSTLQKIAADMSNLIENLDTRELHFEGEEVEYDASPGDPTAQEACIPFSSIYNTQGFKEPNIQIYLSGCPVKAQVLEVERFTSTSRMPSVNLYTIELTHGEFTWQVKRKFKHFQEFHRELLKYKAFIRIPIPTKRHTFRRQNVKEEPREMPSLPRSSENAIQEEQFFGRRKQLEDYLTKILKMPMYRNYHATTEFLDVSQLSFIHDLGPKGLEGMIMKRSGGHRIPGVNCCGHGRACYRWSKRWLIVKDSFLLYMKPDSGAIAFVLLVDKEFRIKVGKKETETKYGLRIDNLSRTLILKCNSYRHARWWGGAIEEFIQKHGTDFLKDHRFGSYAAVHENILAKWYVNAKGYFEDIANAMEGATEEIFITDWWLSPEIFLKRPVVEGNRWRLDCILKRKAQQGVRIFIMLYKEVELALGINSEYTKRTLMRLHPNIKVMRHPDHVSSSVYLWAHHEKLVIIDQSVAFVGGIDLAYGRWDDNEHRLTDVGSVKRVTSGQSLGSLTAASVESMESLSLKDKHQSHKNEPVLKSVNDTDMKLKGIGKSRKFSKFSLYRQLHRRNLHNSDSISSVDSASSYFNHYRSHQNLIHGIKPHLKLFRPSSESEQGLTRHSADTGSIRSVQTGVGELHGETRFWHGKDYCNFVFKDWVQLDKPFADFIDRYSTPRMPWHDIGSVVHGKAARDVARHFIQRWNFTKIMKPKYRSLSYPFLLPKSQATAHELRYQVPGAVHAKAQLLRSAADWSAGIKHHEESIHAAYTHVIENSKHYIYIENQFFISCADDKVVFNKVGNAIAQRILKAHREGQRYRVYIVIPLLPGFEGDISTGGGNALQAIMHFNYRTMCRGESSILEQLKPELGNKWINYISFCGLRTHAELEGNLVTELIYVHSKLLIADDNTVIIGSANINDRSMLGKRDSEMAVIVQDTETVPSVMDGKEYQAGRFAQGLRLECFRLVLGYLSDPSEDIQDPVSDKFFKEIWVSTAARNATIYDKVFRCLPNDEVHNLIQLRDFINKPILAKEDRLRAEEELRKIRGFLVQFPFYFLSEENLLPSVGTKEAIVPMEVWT
Assay: Measurement of PLD activity (partially purified rat brain PLD, 14C-PC substrate, TLC)
Format: biochemical
Conditions: 10 μM

With `OCC(O)CO` [glycerol, reference compound] the “inhibition of PLD activity by headgroups” value was “None of the headgroups such as choline, glycerol, inositol, or serine significantly inhibited PLD activity”.
